In patent US20090263852A1, “NONAPOPTOTIC FORMS OF CELL DEATH AND METHODS OF MODULATION” (priority 2000, published 2009):
“Also recorded” adds a separate entry of the source.

System: IGFIR-IC transfected 293T cells
Assay: IGFIR-IC-induced cell death (paraptosis) in transfected 293T cells, trypan blue exclusion
Assay type: cell-based
Conditions: 0.5 mg pIGFIR-IC cotransfected with 1.5 mg construct
Protocol: Transient transfections used Lipofect-Amine (GIBCO, BRL, Rockville, Md.) according to the manufacturer's instructions. Briefly, 1×10^6 293T cells were seeded in 6 cm dishes, and transfected the next day using a ratio of DNA:Lipofect-Amine of 1 μg:5 μl. Transfection efficiency was 60-80% for 293T, as determined by X-gal staining after transfection of a b-galactosidase construct.
Following expression of the IGIFR-IC constructs, the cell cultures were assayed for cell death. Cell death was assessed by trypan blue exclusion. Floating cells were collected at the indicated times after transfection, by centrifugation for 10 minutes at 1500 rpm. […] Dead cells were counted by 4 independent hemocytometer counts. […]
To assess IGFIR-induced cell death following treatment with Actinomycin D and cycloheximide, both drugs were obtained form Sigma and added to IGFIR-IC transfected 293T cells. […] Floating cells were collected 24 hrs after the removal of the drugs and dead cells were counted in the presence of trypan blue.
To assess whether caspase-9 has a functional role in IGFIR-induced cell death 293T cells were transfected with 2 μg of DNA consisting of either pcDNA3, 0.5 μg pIGFIR-IC+1.5 μg pcDNA3 (Invitrogen, Carlsbad, Calif.), or 0.5 μg pIGFIR-IC+1.5 μg dominant negative caspase-9 (pC9DN) or dominant negative caspase-7 (pC7DN) expression constructs. 48 hours after transfection, dead cells were counted. […]

For “xiap: X-chromosome-linked inhibitor of apaoptosis, cotransfected as expression construct”, the “inhibition of IGFIR-IC-induced cell death by cotransfection” value was “Neither the administration of the caspase inhibitor BAF at 50 mM (A) nor the cotransfection of xiap (B) or Bcl-xL (C) were effective; also recorded: neither”.
